This is an account of results in ChEMBL document CHEMBL4371086, “An irreversible inhibitor of peptidyl-prolyl cis/trans isomerase Pin1 and evaluation of cytotoxicity” (Bioorg Med Chem Lett, 2019).

Protein sequences, listed by entry. Tags and fused reporters are not part of them.
UniProt Q13526, whole entry: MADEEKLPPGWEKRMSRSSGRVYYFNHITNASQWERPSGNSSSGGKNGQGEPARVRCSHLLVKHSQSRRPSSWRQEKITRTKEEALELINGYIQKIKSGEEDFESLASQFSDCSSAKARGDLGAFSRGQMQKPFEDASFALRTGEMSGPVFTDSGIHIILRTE

SMILES strings stand for the structures.

The assay addresses Peptidyl-prolyl cis-trans isomerase NIMA-interacting 1 (Homo sapiens, UniProt Q13526).

Molecule `O=C(/C=C/c1ccc2ccccc2c1)N[C@@H](CCC(=O)N1CCOCC1)C(=O)O` came in with a Kinact of 3.42 ×10⁻⁷ /s.

On to `O=C(/C=C/c1ccc2ccccc2c1)N[C@H](CCC(=O)N1CCOCC1)C(=O)O`, for which the Kinact is 9.41 ×10⁻⁸ /s.
